The text below walks through data of ChEMBL document CHEMBL5365545, “Synthesis and Optimization of 1-Substituted Imidazo[4,5-c]quinoline TLR7 Agonists” (ACS Med Chem Lett, 2023).

Activity calls are given as the source filed them. The rule behind the calls is not given here.

Test [1] has as its target T1, Toll-like receptor 8 (Homo sapiens) (UniProt Q9NR97).
T1 sequence (whole entry): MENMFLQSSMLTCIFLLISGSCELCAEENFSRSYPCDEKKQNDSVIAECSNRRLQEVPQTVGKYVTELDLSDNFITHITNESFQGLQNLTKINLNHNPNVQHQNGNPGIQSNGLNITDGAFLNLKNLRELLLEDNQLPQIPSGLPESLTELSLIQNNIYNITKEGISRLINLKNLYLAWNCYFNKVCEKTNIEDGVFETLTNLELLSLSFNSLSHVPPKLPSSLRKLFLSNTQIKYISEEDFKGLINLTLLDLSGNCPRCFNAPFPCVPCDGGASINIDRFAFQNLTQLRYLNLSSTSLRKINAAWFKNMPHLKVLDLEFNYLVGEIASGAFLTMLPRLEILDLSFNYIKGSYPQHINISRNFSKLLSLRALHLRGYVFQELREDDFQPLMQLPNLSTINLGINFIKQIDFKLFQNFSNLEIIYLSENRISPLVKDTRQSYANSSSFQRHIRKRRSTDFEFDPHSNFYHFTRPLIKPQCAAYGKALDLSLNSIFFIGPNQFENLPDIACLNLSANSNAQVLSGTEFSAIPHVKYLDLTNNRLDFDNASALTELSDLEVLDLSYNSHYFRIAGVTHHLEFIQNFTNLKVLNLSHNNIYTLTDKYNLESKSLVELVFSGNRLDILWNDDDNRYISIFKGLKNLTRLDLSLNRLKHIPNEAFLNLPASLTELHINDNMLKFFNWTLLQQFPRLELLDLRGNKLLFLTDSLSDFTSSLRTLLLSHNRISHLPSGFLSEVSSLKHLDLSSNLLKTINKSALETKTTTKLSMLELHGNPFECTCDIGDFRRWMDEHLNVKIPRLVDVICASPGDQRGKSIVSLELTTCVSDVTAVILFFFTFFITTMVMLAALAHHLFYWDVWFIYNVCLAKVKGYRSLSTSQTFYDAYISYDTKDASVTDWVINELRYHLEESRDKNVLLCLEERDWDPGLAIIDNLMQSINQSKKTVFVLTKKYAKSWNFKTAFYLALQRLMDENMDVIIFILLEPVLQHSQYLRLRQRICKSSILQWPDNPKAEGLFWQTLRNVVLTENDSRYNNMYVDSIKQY
As to the kind of experiment: Agonist activity at TLR8 in GM-CSF induced human MDM cells assessed as increase in TNFalpha release at 80 to 2000 nM measured after 6 hrs. The test is classed as cell-based. The note with it: filed as agonist, dose 80-2000 nM.

Test [2] has as its target T1, Toll-like receptor 8 (Homo sapiens). As to the kind of experiment: Agonist activity at TLR8 in GM-CSF induced human MDM cells assessed as increase in IL-6 release at 80 to 2000 nM measured after 6 hrs. Type of test: cell-based. The note with it: filed as agonist, dose 80-2000 nM.

Take `CCOCc1nc2c(N)nc3ccccc3c2n1CC(C)(C)O` [RESIQUIMOD]: the result in test [1] and in test [2] was Active.
